Test results taken from US20250243180A1, “TARGETED PROTEIN DEGRADATION” (Monte Rosa Therapeutics AG, priority 2023, published 2025).
Like-named read-outs stand apart in the source and are kept apart here.

Sequences of proteins named here, by UniProt entry; tags and fusion partners are left off. Residues count along the entry.
UniProt Q96SW2, whole entry: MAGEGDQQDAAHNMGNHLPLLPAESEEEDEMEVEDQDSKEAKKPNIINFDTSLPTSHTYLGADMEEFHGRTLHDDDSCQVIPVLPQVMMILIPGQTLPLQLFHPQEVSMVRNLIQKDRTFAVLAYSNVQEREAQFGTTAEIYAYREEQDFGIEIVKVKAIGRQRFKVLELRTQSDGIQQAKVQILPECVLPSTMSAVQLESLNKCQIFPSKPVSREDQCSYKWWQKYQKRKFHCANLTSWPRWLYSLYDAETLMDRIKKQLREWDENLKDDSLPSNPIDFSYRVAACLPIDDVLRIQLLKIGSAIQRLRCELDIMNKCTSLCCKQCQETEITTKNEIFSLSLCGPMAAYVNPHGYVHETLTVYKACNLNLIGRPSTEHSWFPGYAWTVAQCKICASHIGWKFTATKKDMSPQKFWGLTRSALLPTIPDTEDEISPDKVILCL
UniProt Q8TDX7, whole entry: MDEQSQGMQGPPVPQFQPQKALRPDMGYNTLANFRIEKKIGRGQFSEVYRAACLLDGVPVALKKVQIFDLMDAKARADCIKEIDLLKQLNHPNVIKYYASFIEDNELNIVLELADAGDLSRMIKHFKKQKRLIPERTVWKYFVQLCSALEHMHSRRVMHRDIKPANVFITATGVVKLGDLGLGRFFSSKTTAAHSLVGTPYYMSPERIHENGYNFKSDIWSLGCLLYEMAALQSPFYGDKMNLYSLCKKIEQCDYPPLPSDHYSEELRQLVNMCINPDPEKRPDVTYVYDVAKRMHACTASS
UniProt Q16531, 2-1140 partner limits assumed: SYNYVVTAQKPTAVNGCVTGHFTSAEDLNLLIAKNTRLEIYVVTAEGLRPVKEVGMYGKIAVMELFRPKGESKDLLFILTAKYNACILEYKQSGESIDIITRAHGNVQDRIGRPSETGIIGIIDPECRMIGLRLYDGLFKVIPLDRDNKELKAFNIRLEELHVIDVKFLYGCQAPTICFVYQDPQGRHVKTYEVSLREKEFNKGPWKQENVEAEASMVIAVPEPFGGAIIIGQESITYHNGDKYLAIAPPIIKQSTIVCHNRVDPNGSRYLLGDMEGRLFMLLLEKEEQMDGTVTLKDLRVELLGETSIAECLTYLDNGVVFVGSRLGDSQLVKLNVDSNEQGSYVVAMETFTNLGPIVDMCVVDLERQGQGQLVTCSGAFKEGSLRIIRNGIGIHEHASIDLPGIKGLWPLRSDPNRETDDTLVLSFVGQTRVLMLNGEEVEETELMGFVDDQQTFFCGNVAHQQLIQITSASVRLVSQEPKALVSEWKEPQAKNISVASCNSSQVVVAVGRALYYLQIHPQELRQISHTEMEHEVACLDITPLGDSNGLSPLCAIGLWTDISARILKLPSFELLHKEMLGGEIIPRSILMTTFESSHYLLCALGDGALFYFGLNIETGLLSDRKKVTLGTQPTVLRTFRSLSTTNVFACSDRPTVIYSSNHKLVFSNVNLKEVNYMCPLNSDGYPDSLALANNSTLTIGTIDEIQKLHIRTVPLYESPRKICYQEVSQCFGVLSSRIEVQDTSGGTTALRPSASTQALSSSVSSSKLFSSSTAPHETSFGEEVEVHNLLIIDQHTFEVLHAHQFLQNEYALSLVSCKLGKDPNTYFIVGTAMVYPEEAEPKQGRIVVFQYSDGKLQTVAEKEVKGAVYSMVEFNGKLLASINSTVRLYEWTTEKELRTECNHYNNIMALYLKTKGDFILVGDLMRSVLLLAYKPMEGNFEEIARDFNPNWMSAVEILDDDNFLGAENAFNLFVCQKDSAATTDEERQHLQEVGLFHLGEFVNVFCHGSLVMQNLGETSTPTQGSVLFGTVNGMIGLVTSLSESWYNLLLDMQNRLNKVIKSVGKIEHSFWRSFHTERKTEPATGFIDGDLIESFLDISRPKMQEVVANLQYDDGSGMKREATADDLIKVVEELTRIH
UniProt Q16531, whole entry partner: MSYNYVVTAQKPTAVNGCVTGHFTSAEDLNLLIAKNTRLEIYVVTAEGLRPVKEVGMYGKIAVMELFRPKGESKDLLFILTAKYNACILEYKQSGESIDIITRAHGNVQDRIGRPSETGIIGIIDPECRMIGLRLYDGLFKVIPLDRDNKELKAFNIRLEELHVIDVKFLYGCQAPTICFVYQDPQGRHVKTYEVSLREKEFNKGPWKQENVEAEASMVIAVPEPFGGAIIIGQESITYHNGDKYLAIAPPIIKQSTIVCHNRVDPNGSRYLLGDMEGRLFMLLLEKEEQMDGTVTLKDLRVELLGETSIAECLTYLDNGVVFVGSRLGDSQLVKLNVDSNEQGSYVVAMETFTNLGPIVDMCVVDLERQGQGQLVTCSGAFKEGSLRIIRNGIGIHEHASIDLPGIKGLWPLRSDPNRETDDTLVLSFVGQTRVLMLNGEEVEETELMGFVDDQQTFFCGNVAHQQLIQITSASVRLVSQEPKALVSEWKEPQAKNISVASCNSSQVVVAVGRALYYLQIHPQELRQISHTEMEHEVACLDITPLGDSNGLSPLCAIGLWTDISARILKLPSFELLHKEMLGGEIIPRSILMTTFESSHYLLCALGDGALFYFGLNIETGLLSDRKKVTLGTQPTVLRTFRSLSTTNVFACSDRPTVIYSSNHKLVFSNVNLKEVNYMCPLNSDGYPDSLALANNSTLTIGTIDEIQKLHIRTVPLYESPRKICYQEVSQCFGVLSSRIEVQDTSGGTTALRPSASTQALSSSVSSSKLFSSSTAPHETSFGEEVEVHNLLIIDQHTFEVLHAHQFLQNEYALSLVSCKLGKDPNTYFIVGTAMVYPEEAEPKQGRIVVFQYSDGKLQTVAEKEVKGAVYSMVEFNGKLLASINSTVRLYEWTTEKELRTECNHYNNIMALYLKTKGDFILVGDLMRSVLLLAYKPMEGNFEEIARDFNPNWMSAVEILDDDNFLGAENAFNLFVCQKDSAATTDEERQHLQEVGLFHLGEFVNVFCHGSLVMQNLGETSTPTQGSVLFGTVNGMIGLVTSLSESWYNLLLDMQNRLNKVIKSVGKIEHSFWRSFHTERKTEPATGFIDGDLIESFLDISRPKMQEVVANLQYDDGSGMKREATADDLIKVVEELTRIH

Legend:
CRBN-DDB1 = CRBN-DDB1 (Homo sapiens (Human), UniProt Q96SW2); test: Compound binding to CRBN by HTRF assay; details: read-out: HTRF CRBN EC50
NEK7 = NEK7 (Homo sapiens (Human), UniProt Q8TDX7+Q96SW2); test: NEK7 NanoBiT degradation assay in Cal51 NEK7 NanoBiT cell line; details: Cal51 NEK7 NanoBiT cells, 24 hours

EC50 (CRBN-DDB1): 170 nM | EC50 (CRBN-DDB1; HTRF class, Cereblon binding): 100 to 1000 nM | NEK7 NanoBiT Dmax (NEK7): 68% | DC50 (NEK7; read-out: NEK7 NanoBiT DC50): 87 nM | DC50 (NEK7; read-out: NanoBiT DC50, NEK7 degradation): < 100 nM
SMILES: CC(C)(O)c1ccc(C(C)(C)C(=O)NCc2cc(Cl)c(C3CCC(=O)NC3=O)c(Cl)c2)nn1 (stereo not drawn) [Compound 203]
NanoBiT Dmax (NEK7; NEK7 degradation): B (B represents a DMAX value>50% and ≤75%)
